target: B-cell lymphoma 6 protein (Homo sapiens, UniProt P41182)

Row | Compound | IC50 [nM]
1 | C[C@H](O)CCn1c(=O)n(C)c2ccc(Nc3ccnc(Cl)c3C#N)cc21 | 3900
2 | C[C@@H](O)CCn1c(=O)n(C)c2ccc(Nc3ccnc(Cl)c3C#N)cc21 | 1700
3 | Cn1c(=O)n(CCC(C)(C)O)c2cc(Nc3ncnc(Cl)c3C#N)ccc21 | 2500
4 | Cn1c(=O)n(CCC(C)(C)O)c2cc(Nc3nc(Cl)ncc3Cl)ccc21 | 1900
